Target: GS-TAP-tagged Optn (human) (UniProt Q96CV9)
Test: TAP of GS-tagged Optn from HEK-293 cells, LC-MSMS

Sequence: UBIQUITIN AND RIBOSOMAL PROTEIN S27A PRECURSOR.
- sequence coverage: 0.3
- unique peptide counts: 4
